{
  "sequences": {"note": "Sequences of proteins named here, by UniProt entry; tags and fusion partners are left off.", "UniProt P31390, whole entry": "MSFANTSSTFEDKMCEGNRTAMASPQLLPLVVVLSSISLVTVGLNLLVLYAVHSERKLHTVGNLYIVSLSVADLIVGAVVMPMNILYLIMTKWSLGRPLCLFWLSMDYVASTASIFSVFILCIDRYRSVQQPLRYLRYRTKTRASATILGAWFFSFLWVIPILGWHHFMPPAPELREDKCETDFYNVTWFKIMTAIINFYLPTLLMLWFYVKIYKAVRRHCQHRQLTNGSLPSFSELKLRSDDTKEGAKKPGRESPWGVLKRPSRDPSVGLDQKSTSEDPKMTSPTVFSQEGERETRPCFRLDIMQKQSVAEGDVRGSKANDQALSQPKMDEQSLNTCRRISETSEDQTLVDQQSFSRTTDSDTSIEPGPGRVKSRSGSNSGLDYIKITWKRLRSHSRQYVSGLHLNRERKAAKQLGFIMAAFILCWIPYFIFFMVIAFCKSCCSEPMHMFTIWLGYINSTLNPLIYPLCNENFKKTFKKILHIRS"},
  "source": "paper PMC5808195",
  "about": "(Frontiers in Pharmacology, 2018)",
  "key": {"[1]": {"molecular_target": "T1, rat cerebral neuronal membranes (histamine H1 binding sites) (Rattus norvegicus, UniProt P31390)", "test": "Competitive displacement of [^3H]pyrilamine binding, rat cerebral neuronal membranes", "set-up": "native receptors contained in rat cerebral neuronal membranes; from tissue; host or cells: cerebral tissue of male Wistar rats, membrane fraction (40,000 x g pellet)"}, "[2]": {"system": "D107A-HRH1", "settings": "ref Ohta et al., 1994; Wieland et al., 1999; Bruysters et al., 2004; cited from earlier work"}, "[3]": {"molecular_target": "T1, rat cerebral neuronal membranes (histamine H1 binding sites)"}},
  "note": "Where a name gives a salt, the structure may show the parent alone.",
  "data": [
    {"molecule": "COc1ccc(CN(CCN(C)C)c2ccccn2)cc1", "note": "[Pyrilamine, pyrilamine maleate]", "values": [
      {"measurement": "Ki", "setting": "[1]", "result": "5.89 ± 1.88", "unit": "nM"},
      {"measurement": "displacement of specific [^3H]pyrilamine binding (in words)", "setting": "[1]; rat cerebral neuronal membranes, 20 nM [^3H]pyrilamine", "result": "concentration-dependent inhibition"},
      {"measurement": "affinity of mutant receptor D107A-HRH1", "setting": "[2]", "result": "low affinity"}
    ]},
    {"molecule": "[^3H]pyrilamine", "values": [
      {"measurement": "maximum number of binding sites (Bmax)", "setting": "[3]; mean ± SEM", "result": "0.151 ± 0.0128", "unit": "pmol/mg protein"},
      {"measurement": "Kd", "setting": "[3]; read-out: dissociation constant (Kd), mean ± SEM, n = 3", "result": "9.76 ± 2.04", "unit": "nM"}
    ]}
  ]
}
